The source of these data is patent US6552216B1, “Molecular model for VLA-4 inhibitors” (Biogen, Inc., priority 1996, dated 2003).

Chains of the proteins cited; added tags and fusions are not shown. Residues count along the entry.
UniProt P05556, 21-798 limits assumed: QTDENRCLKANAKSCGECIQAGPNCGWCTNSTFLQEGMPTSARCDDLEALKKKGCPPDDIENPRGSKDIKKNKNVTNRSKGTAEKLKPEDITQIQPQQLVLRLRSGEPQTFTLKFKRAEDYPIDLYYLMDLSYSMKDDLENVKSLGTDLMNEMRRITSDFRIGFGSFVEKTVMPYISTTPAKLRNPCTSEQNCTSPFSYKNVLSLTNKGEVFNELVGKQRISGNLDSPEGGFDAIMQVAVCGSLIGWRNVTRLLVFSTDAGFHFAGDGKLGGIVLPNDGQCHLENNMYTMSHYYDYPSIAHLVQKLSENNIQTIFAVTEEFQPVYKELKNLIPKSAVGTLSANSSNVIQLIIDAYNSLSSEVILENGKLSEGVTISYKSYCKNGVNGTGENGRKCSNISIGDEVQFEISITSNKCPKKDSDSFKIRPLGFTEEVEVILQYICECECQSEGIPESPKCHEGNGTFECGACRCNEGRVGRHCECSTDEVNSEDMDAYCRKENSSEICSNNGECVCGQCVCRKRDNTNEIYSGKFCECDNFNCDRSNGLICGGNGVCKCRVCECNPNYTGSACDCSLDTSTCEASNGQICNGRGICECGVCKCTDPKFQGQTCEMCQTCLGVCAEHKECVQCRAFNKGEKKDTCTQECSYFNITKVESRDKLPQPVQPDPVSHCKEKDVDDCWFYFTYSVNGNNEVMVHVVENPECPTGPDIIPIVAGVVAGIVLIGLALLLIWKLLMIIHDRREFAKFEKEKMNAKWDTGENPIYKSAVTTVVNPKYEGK
UniProt P13612, 34-1032 limits assumed: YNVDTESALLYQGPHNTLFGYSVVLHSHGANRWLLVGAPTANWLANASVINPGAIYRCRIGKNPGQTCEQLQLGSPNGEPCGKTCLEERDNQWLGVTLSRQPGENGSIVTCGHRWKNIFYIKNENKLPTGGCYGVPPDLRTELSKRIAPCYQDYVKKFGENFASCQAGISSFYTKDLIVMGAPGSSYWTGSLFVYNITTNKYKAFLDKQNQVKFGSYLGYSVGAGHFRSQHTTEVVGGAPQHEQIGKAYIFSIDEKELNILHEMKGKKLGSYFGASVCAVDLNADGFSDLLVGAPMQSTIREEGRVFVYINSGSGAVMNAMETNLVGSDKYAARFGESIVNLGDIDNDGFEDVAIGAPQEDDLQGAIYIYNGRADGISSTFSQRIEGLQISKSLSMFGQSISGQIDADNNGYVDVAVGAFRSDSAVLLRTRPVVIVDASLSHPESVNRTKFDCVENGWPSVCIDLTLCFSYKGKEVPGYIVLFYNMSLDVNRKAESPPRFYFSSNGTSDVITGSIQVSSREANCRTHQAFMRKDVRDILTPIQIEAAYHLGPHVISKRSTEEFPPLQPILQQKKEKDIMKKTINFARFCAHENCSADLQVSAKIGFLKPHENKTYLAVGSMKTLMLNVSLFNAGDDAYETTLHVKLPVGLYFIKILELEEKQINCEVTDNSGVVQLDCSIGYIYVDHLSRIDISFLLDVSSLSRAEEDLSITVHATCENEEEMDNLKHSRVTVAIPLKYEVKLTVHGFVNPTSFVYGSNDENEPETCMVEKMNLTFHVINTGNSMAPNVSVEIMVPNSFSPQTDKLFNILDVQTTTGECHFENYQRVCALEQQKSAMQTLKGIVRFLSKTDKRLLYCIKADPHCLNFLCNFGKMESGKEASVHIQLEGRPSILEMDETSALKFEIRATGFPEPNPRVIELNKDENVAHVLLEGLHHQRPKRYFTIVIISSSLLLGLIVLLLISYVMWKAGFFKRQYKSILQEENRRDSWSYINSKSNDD

The test deals with VLA-4 (Homo sapiens, UniProt P05556+P13612). Briefly: VLA-4 direct binding assay (DBA).

`CC(C)CC(NC(=O)Cc1ccc(NC(=O)Nc2ccccc2)cc1)C(=O)NC(CC(=O)O)c1ccc2c(c1)OCO2` (centres unmarked) came in with an IC50 of 0.05 µM.

In the case of `CC(C)CC(NC(=O)Cc1ccc(NC(=O)NC2CCCCC2)cc1)C(=O)NC(CC(=O)O)c1ccc2c(c1)OCO2` (centres unmarked), the half-inhibitory concentration (IC50) came to 10 µM.
